# Measured values published in PubChem BioAssay AID493249 (Broad Institute, 2011).
# This is a selection; strong and weak results do not stand in their true shares. Active and inactive are the calls of the source.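 The calls were made as follows: active = compounds lowering cell viability with a fitted IC50 within ten times their top tested dose; inconclusive = flat viability loss of 30 to 70 percent, or poor fit; inactive = the rest.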
# Experiment: viability of U2OS HRE-luciferase line – cell-based, dry powder, set 7, cytotoxicity control for HIF pathway activator project, dose response (AID 493249)
# Conditions: U2OS HRE-luc cells, viability toxicity counter-screen, CellTiter-Glo; at 38 µM (top of the series)
# How it was run: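 Material: U2OS HRE-luciferase reporter cells; quantity: 6,000 cells/well; evaluation: compound toxicity as loss of cell viability; medium: phenol red-free DMEM, 10% FBS, no hygromycin; detection: CellTiter-Glo luminescence; schedule: 24 h cell attachment, then 24 h compound exposure, 37 °C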
smiles,measurement,value
O=c1[nH]c2ccccc2n1C1CCN(Cc2ccc(O)c3ncccc23)CC1,"activity change, negative = toxicity",inactive: -2.85%
